# AlphaSeq binding of Ab-14 light chain variants to a spike HR2 peptide

Target peptide (SARS-CoV-2 spike, HR2 region): PDVDLGDISGINAS

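This is the validation round: designs drawn from the data on random variants, tested in the same kind of assay. Group labels follow the data file (Ctrl: baseline library sampled from a position-specific scoring matrix, with some repeated check sequences; En: ensemble of fine-tuned language models; GP: Gaussian process model; HC: hill climbing; Gen: genetic algorithm; Gibbs: Gibbs sampling; a sequence that several methods proposed may carry one label only). AlphaSeq pools MATa yeast showing the antibodies with MATalpha yeast showing the peptide. After mating in shaken culture at 30 °C for 16 h, diploids were selected and their barcode pairs sequenced. The ratio of observed to expected reads was calibrated, replicate by replicate, on BCL2-family standards whose Kd was known from biolayer interferometry. Each pool was mated in six replicate cultures.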

Parent scFv Ab-14: VH joined to VL by three GGGGS repeats. Changes lie in the light chain CDRs alone.
VH: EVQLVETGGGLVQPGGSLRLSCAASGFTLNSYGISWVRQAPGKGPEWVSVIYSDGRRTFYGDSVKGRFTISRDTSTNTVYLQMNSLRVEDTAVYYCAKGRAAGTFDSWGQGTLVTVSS
VL: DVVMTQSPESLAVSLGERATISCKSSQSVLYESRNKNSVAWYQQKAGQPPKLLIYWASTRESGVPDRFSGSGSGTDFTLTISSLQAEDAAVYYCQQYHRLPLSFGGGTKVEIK

The parent's light chain CDRs are KSSQSVLYESRNKNSVA, WASTRES, QQYHRLPLS; each variant's own CDRs replace them letter for letter.
This list holds designs with more than six substitutions.
Values are apparent Kd, the geometric mean of the replicates that gave a signal; lower means stronger binding.
Where no diploid with the target was found in any replicate, the entry reads "not detected": below detection, most likely a poor binder, though not proof of it.

CDR-L1,CDR-L2,CDR-L3,group,Kd,seen in
RLMGWGADQIQHANSVA,DRDEVDM,QQYAHLPLS,En_Gibbs,54 nM,4 of 6
KLSISHQVESINKSNVA,EMVTREY,QQYDRLPLS,En_HC,73 nM,6 of 6
ALQQKGATLHEARQSIA,HSDTRAA,QQYSTLPLA,En_Gibbs,4.9 nM,6 of 6
TLYGLMLSMSKNVNNVA,EMTTREK,QQYDRLPLV,En_Gen,20 nM,1 of 6
SVRHPFQGENGMKGSVA,NATIRDQ,QQYFRLPLF,En_Gibbs,2.1 nM,6 of 6
KIMQSLNYESFNKNSVA,GQQTRER,QSYHRLPLS,En_HC,34 nM,6 of 6
KQQISVEQESRQKNSVA,NASTRCE,QQYHRLPLS,GP_Gibbs,3.7 nM,6 of 6
KISCAVYYGDRNKMSVA,DASQRES,QQYHRLPLS,GP_Gibbs,1.9 nM,6 of 6
MIYGMDRELGRAANSIA,DNVTRYN,QQYNRLPLD,En_Gen,66 nM,1 of 6
TLTGVMDMTSRNVNSVA,DLTTRGN,QQYHRLPLS,En_HC,2.4 nM,6 of 6
ILSQSVLMGSHLKNSVA,QAQTRES,QQYHRLPLS,En_HC,5.5 nM,6 of 6
KLVGVDDNDPNPSHNIA,DVSMLDN,QQYHRLPLD,En_Gibbs,250 nM,6 of 6
KFSQSVFYESGNGNPVA,DASTRES,QQYHMLPLS,Ctrl,8.3 nM,6 of 6
MISQSFLIGSFAKNSVA,QTSTRES,QQYDRLPLS,En_HC,not detected,0 of 6
SLMQVGGYESNNKNSIA,DLRTREN,QQYHRLPLS,En_HC,2.8 nM,6 of 6
IISGSMLMESRKKNSVA,NAETREY,QHYDRLPLS,En_HC,150 nM,6 of 6
MISQSFLTGMKAKNSVA,QTNTREE,QQYDRLPLI,En_HC,3.9 nM,6 of 6
KASDGELYESRDDNSVA,NASKRLS,QQYHRLPLS,GP_Gibbs,1.0 nM,6 of 6
NLSISMLHESINKHSVA,EVRTRES,QQYDRLPLS,En_HC,12 nM,6 of 6
KLSSFHNVEQINKSNVA,EMVTRES,QQYDRLPLS,En_HC,65 nM,6 of 6
KMSMSVLYEDRHQNSVA,NASTRLD,QQYHRLPLS,GP_Gibbs,2.3 nM,6 of 6
VLQQLGLYEPRNKNSVA,SASTRLP,QQYHRLPLS,GP_Gibbs,2.8 nM,6 of 6
KVSEFMKGLMMRKDSIA,DNTTRGQ,QQYDRLPLS,En_Gen,210 nM,6 of 6
TIGSTLMYGMRNSSNVA,EVSERLN,QQYDRLPLI,En_Gen,7.7 nM,6 of 6
KLYVSTMLETHDKNSIA,DLSTRGN,QQYHRLPLS,En_HC,3.0 nM,6 of 6
KVDSSVNYGQRNKNSVA,DASQRES,QQYHRLPLS,GP_Gibbs,770 pM,6 of 6
MLSQVWGMGQRHRNNVA,QTSTREP,QQYDRLPLI,En_Gen,46 nM,6 of 6
MISMVTEGMVRKHDSVA,DNSTRES,QQYDRLPLS,En_Gen,24 nM,6 of 6
HLGLATMLEEYVRNSVA,NNSTREE,QQYDRLPLS,En_Gen,49 nM,2 of 6
MVTQMAMTGMMSKRSVA,NATTREY,QQYHRLPLI,En_Gen,23 nM,6 of 6
TIAQSMLYLSNLKNSIA,QAETREE,QQYHRLPIS,En_HC,3.2 nM,6 of 6
KISMLTRFQQNAKNNIA,EMNRREE,QQYHRLPLS,En_HC,1.4 nM,6 of 6
KISMVTGHMSMSKNNVA,EMETREN,QQYDRLPLS,En_Gen,31 nM,6 of 6
RITEQYFEYMGNCNNVA,EAECKQY,QQYAHLPLL,En_Gibbs,49 nM,6 of 6
KLSQSVNMTGKNKNSVA,ELSFREE,QQYERLPLS,En_HC,140 nM,6 of 6
MISQLYNMGQFAINSVA,QASIRNE,QQYDRLPLM,En_Gen,12 nM,6 of 6
MVTQMAMTGMMSKRSVA,NASTREN,QQYHRLPLI,En_Gen,2.9 nM,6 of 6
KLGQSVAMTSRMKNNVA,DLNERER,QQYHRLPLS,En_HC,1.4 nM,6 of 6
KQQQSEPGLSRNMNSVA,HASTRES,QQYHRLPLS,GP_Gibbs,2.1 nM,6 of 6
KISFQYRYEQLNKNSIA,EVQTRLK,QQYHRLPLS,En_HC,9.6 nM,6 of 6
KVSQMQDYESRNKNNVA,EASTRMS,QQYHRLPLS,GP_Gibbs,370 pM,6 of 6
ALSINYPQQHGMNDSIA,HSDRREA,QQYYRLPLA,En_Gibbs,4.8 nM,6 of 6
MISQVMGLNNMYKYSVA,QAETRLN,QQYDHLPLS,En_Gen,220 nM,6 of 6
MISFLTMYGSRNKNSVA,DLSTRGS,QQYHRLPLS,En_HC,2.6 nM,6 of 6
KLGSMVLLEYGNKNSIA,QMSTREE,QQYDRLPLS,En_HC,26 nM,4 of 6

The authors' rule: three or more of the six replicates give a measured affinity, fewer mean a poor binder.
The range of this assay differs from that of the first round, and the authors advise against merging the two.
As a blank, each scFv also met three strains without target: over all light chain designs, 4% of these pairings were detected, typically at 430 nM and seldom below 38 nM.

Data: MIT Lincoln Laboratory AlphaSeq set, Li et al. 2023, doi:10.1038/s41467-023-39022-2, as distributed in FLAb.